The values that follow come from US11542290B2 (dated 2023).

The data set deals with Caco-2 cells.

Regarding `CN1CCN(CCCN2c3ccccc3Sc3ccc(C(F)(F)F)cc32)CC1` [Trifluoperazine, 10-[3-(4-methylpiperazin-1-yl)propyl]-2-(trifluoromethyl)phenothiazine], the “Permeability across membranes (in words)” value is on record as “moderate permeability”. For the same compound, the “P-gp substrate status (in words)” value (Caco-2) is “likely not a P-gp substrate”.
